These are literature values, as cited in publication PMC10797613 (ACS Chemical Neuroscience, 2024).

Protein sequences, listed by entry. Tags and fused reporters are not part of them.
UniProt P08908, whole entry: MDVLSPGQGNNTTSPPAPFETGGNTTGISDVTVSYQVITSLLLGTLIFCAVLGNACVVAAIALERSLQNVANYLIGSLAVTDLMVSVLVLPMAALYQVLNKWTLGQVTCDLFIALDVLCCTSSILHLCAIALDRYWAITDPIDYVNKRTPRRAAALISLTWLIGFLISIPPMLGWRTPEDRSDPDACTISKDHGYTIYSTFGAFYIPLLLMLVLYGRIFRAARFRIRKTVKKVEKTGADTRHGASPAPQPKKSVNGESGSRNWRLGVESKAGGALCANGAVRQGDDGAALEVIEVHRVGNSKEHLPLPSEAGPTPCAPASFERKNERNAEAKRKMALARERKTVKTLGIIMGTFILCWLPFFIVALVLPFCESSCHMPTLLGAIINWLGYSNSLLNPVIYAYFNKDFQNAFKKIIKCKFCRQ

The target in the data set is 5-HT1A (Homo sapiens, UniProt P08908). The settings on record: read-out: Ki 5-HT1A; previous report; cited from earlier work.

As to `CNCCc1c[nH]c2cccc(O)c12` [norpsilocin, 4-hydroxy-N-methyltryptamine], the Ki was 29 to 86 nM.
